Measured values: patent publication US20160045482A1, “UREIDO-PYRAZOLE DERIVATIVES” (Respivert Limited, priority 2010, published 2016)

Tests used:
[1] = system: IL-8; experiment: IL-8 release activated by human rhinovirus in BEAS2B cells; assay type: cell-based; settings: BEAS-2B, MOI of 5, 72 hr, read-out: HRV16-induced IL-8 IC50 Value
Experimental: BEAS2B cells were infected with rhinovirus at an MOI of 5 and incubated for 2 hr at 33° C. with gentle shaking to enhance adsorption. Test compounds were added 2 hr before HRV infection and 2 hr after infection when residual extracellular HRV was washed out. The cells were then washed with PBS, fresh media was added and the cells were incubated for a further 72 hr. The supernatant was collected for assay of IL-8 concentrations using the Duoset ELISA development kit (R&D Systems, Minneapolis, Minn.).

[2] = system: ICAM-1; experiment: ICAM1 expression activated by human rhinovirus in BEAS2B cells (cell-based ELISA); settings: BEAS-2B, HRV16 inoculation (2 hr infection), read-out: HRV16-induced ICAM1 IC50 Value
Experimental: BEAS2B cells were infected with rhinovirus at an MOI of 5 and incubated for 2 hr at 33° C. with gentle shaking to enhance adsorption. Test compounds were added 2 hr before HRV infection and 2 hr after infection when residual extracellular HRV was washed out. The cells were then washed with PBS, fresh media was added and the cells were incubated for a further 72 hr. The supernatant was collected for assay of IL-8 concentrations using the Duoset ELISA development kit (R&D Systems, Minneapolis, Minn.). The level of ICAM-1 expression on the cell surface was determined by cell-based ELISA. After appropriate incubation, cells were fixed with 4% formaldehyde in PBS. After quenching endogenous peroxidase by adding 0.1% sodium azide and 1% hydrogen peroxide, wells were washed with buffer (0.05% Tween in PBS: PBS-Tween). […] The ICAM-1 signal was detected by adding substrate and the optical densities were read at a wavelength of 450 nm and at a reference wavelength of 655 nm using a spectrophotometer. The wells were then washed with PBS-Tween and total cell numbers in each well were determined by reading the absorbance at 595 nm after Crystal Violet staining and elution by 1% SDS solution. The measured OD450-655 readings were corrected for cell number by dividing with the OD595 reading in each well.

COCC(=O)Nc1cc(Oc2ccc(NC(=O)Nc3cc(C(C)(C)C)nn3-c3ccc(C)cc3)c3ccccc23)ccn1 [Reference Compound 2, N-(4-(4-(3-(3-tert-Butyl-1-p-tolyl-1H-pyrazol-5-yl)ureido)naphthalen-1-yloxy)pyridin-2-yl)-2-methoxyacetamide]
IC50 [1]: 0.065 nM
IC50 [2]: 0.37 nM
